Protein sequences, listed by entry. Tags and fused reporters are not part of them. Residues count along the entry.
UniProt P97480, 223-510: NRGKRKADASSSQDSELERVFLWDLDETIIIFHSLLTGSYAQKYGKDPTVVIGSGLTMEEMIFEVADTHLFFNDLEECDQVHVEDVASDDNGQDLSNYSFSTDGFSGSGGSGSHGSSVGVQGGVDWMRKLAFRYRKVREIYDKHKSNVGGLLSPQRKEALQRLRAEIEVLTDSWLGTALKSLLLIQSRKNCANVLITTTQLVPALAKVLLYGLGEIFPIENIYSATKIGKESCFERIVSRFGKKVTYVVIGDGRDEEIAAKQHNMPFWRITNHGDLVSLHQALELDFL

According to patent US9725430B2, “Use of small molecule inhibitors targeting EYA tyrosine phosphatase” (Children's Hospital Medical Center, priority 2013, dated 2017):

Target: Eya3(ED) (Mus musculus (Mouse), UniProt P97480)
Assay: p-nitrophenylphosphate (pNPP) assay, catalytic domain of Eya3
Format: biochemical
Conditions: pNPP substrate
Source text: The catalytic domain of mouse Eya3 (“ED”, comprising residues 223-510 of Eya3) was purified as described by Rayapureddi, J. P. et al. (FEBS Lett 580, 3853-3859 (2006), incorporated by reference in its entirety). For full-length Eya3 (“hEYA3”), human Eya3 isoform 2 (representing the major species identified in human cell lines by mass spectrometry, expressed as residues 127-573 of NM_001990, isoform 1) was sub-cloned into pDEST565 to express a poly-histidine-Glutathione-S-transferase (His-GST) tagged fusion protein with a TVMV protease site. The protein was purified by glutathione-S-transferase affinity chromatography followed by TVMV cleavage, Ni-NTA chromatography, and finally size exclusion chromatography.
An inhibitory assay was conducted using the previously described p-nitrophenylphosphate assay (Rayapureddi, J. P. et al. Nature 426, 295-298 (2003)). Briefly, ED was incubated in a reaction mixture containing 20 mM MES pH 6, 2 mM MgCl2, 125 μM inhibitor, 3.4 mM para-nitrophenol phosphate (pNPP) and 0.01 μg/μL enzyme. The amount of 4-nitrophenol (pNP) produced was monitored at […] on a BioTek EL808 plate reader. […]
The compounds were then tested using full-length human recombinant, purified EYA3 and pNPP as a substrate. […] IC50 values were then calculated directly from regression curves using PRISM software. […]

IC50: 10.1 µM
SMILES: CCCCc1oc2ccccc2c1C(=O)c1ccc(O)cc1 [Compound 1b]
